Test results reported in US6528685B2, “Compositions containing and methods of using 1-aminoindan and derivatives thereof and process for preparing optically active 1-aminoindan derivatives” (Teva Pharmaceutical Industries, Ltd., priority 1994, dated 2003).

Key:
rats = settings: administered over a prolonged period
hypoxic rat [1] = experiment: α-MpT-induced hypokinesia in hypoxic rat, Experiment 1A; settings: for Locomotor activity after α-MpT treatment, recorded as total movements / Locomotor activity after αMpT treatment, recorded as big movements: hypoxic rats, 0.5 mg/kg/day by gavage 70-80 days; for Locomotor activity after αMpT treatment, recorded as big movements: Mean ± SEM
hypoxic rat [2] = experiment: α-MpT-induced hypokinesia in hypoxic rat, Experiment 1B; settings: hypoxic rats, 0.3 mg/Kg daily i.p. 21 days; for Locomotor activity after α-MpT treatment, recorded as big movements: Mean ± SEM

SMILES: N[C@@H]1CCc2ccccc21 [R-AI, (R)-1-aminoindan]
- post trauma motor function, in words (rats): can restore almost complete motor function
- Locomotor activity after α-MpT treatment, recorded as total movements (hypoxic rat [1]; hour 1 after α-MpT): 67 ± 8%
- Locomotor activity after αMpT treatment, recorded as big movements (hypoxic rat [1]; hour 1 after α-MpT): 109 ± 27%
- Locomotor activity after α-MpT treatment, recorded as total movements (hypoxic rat [1]; hour 2 after α-MpT): 79 ± 12%
- Locomotor activity after αMpT treatment, recorded as big movements (hypoxic rat [1]; hour 2 after α-MpT): 125 ± 29%
- Locomotor activity after α-MpT treatment, recorded as total movements (hypoxic rat [1]; hour 3 after α-MpT): 198 ± 60%
- Locomotor activity after αMpT treatment, recorded as big movements (hypoxic rat [1]; hour 3 after α-MpT): 151 ± 36%
- Locomotor activity after α-MpT treatment, recorded as total movements (hypoxic rat [1]; hour 4 after α-MpT): 196 ± 17%
- Locomotor activity after αMpT treatment, recorded as big movements (hypoxic rat [1]; hour 4 after α-MpT): 165 ± 40%
- Locomotor activity after α-MpT treatment, recorded as total movements (hypoxic rat [1]; hour 5 after α-MpT): 138 ± 19%
- Locomotor activity after αMpT treatment, recorded as big movements (hypoxic rat [1]; hour 5 after α-MpT): 254 ± 55%
- Locomotor activity after α-MpT treatment, recorded as total movements (hypoxic rat [1]; hour 6 after α-MpT): 77 ± 17%
- Locomotor activity after αMpT treatment, recorded as big movements (hypoxic rat [1]; hour 6 after α-MpT): 201 ± 50%
- Locomotor activity after α-MpT treatment, recorded as total movements (hypoxic rat [1]; hour 7 after α-MpT): 173 ± 30%
- Locomotor activity after αMpT treatment, recorded as big movements (hypoxic rat [1]; hour 7 after α-MpT): 201 ± 50%
- Locomotor activity after α-MpT treatment, recorded as total movements (hypoxic rat [1]; hour 8 after α-MpT): 104 ± 18%
- Locomotor activity after αMpT treatment, recorded as big movements (hypoxic rat [1]; hour 8 after α-MpT): 89 ± 23%
- Locomotor activity after α-MpT treatment, recorded as total movements (hypoxic rat [1]; hour 9 after α-MpT): 95 ± 16%
- Locomotor activity after α-MpT treatment, recorded as total movements (hypoxic rat [1]; hour 10 after α-MpT): 114 ± 41%
- Locomotor activity after αMpT treatment, recorded as big movements (hypoxic rat [1]; hour 10 after α-MpT): 190 ± 34%
- level of activity (total movements) versus corresponding control group, in words (hypoxic rat [1]; hypoxic rats pretreated): much higher
- Locomotor activity after α-MpT treatment, recorded as total movements (hypoxic rat [2]; hour 1 after α-MpT 70 mg/Kg): 80% and 80 ± 15%
- Locomotor activity after α-MpT treatment, recorded as big movements (hypoxic rat [2]; hour 1 after α-MpT 70 mg/Kg): 96 ± 18%
- Locomotor activity after α-MpT treatment, recorded as total movements (hypoxic rat [2]; hour 2 after α-MpT 70 mg/Kg): 87 ± 13%
- Locomotor activity after α-MpT treatment, recorded as big movements (hypoxic rat [2]; hour 2 after α-MpT 70 mg/Kg): 97 ± 16%
- Locomotor activity after α-MpT treatment, recorded as total movements (hypoxic rat [2]; hour 3 after α-MpT 70 mg/Kg): 132 ± 25%
- Locomotor activity after α-MpT treatment, recorded as big movements (hypoxic rat [2]; hour 3 after α-MpT 70 mg/Kg): 117 ± 45%
- Locomotor activity after α-MpT treatment, recorded as total movements (hypoxic rat [2]; hour 4 after α-MpT 70 mg/Kg): 115 ± 24%
- Locomotor activity after α-MpT treatment, recorded as big movements (hypoxic rat [2]; hour 4 after α-MpT 70 mg/Kg): 91 ± 11%
- Locomotor activity after α-MpT treatment, recorded as total movements (hypoxic rat [2]; hour 5 after α-MpT 70 mg/Kg): 65 ± 28%
- Locomotor activity after α-MpT treatment, recorded as big movements (hypoxic rat [2]; hour 5 after α-MpT 70 mg/Kg): 67 ± 11%
- Locomotor activity after α-MpT treatment, recorded as total movements (hypoxic rat [2]; hour 6 after α-MpT 70 mg/Kg): 76 ± 11%
- Locomotor activity after α-MpT treatment, recorded as big movements (hypoxic rat [2]; hour 6 after α-MpT 70 mg/Kg): 58 ± 14%
- Locomotor activity after α-MpT treatment, recorded as total movements (hypoxic rat [2]; hour 7 after α-MpT 70 mg/Kg): 65 ± 7%
- Locomotor activity after α-MpT treatment, recorded as big movements (hypoxic rat [2]; hour 7 after α-MpT 70 mg/Kg): 68 ± 15%
- Locomotor activity after α-MpT treatment, recorded as total movements (hypoxic rat [2]; hour 8 after α-MpT 70 mg/Kg): 40 ± 6%
- Locomotor activity after α-MpT treatment, recorded as big movements (hypoxic rat [2]; hour 8 after α-MpT 70 mg/Kg): 34 ± 6%
- Locomotor activity after α-MpT treatment, recorded as total movements (hypoxic rat [2]; hour 9 after α-MpT 70 mg/Kg): 72 ± 12%
- Locomotor activity after α-MpT treatment, recorded as big movements (hypoxic rat [2]; hour 9 after α-MpT 70 mg/Kg): 84 ± 19%
- Locomotor activity after α-MpT treatment, recorded as total movements (hypoxic rat [2]; hour 10 after α-MpT 70 mg/Kg): 69 ± 18%
- Locomotor activity after α-MpT treatment, recorded as big movements (hypoxic rat [2]; hour 10 after α-MpT 70 mg/Kg): 44 ± 6%

Where “and” joins values, the source holds several entries; their conditions need not be identical. Identical values can stand only once.
